Experimental data as given in publication PMC5358098 (ACS chemical neuroscience, 2016).
Read-outs that look alike come from different tables or passages of the source.

By UniProt entry, the sequences of proteins in these tests, tags left out.
UniProt P21554, whole entry: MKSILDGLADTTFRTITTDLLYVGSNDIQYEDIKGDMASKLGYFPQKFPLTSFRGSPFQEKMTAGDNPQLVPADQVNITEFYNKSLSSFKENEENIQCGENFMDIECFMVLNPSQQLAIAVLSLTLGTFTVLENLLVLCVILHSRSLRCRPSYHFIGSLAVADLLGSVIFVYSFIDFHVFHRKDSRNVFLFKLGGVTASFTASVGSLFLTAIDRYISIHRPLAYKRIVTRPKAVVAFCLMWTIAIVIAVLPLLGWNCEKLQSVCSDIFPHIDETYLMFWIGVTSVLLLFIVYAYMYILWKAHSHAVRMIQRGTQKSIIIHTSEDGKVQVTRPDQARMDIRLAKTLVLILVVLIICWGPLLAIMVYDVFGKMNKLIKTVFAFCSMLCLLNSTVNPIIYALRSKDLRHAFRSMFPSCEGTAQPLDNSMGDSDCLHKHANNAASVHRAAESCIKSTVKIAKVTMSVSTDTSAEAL

Tests used:
Experiment in all cases: cell-based
CB1R [1] = biological target: T1, CB1R (Homo sapiens, UniProt P21554)
CB1R [2] = biological target: T1, CB1R; remark: listed apart in the source
CB1R [3] = biological target: T1, CB1R; remark: listed apart in the source
CB1R [4] = biological target: T1, CB1R; conditions: IC50, PLCβ3 phosphorylation
CB1R [5] = biological target: T1, CB1R; type: cell-based
CB1R [6] = biological target: T1, CB1R; type: cell-based; remark: listed apart in the source
[7] = IC50, BRETEff β-arrestin1-Rluc/CB1-GFP2, 2-AG
[8] = IC50, BRETEff β-arrestin1-Rluc/CB1-GFP2, AEA
[9] = IC50, BRETEff β-arrestin1-Rluc/CB1-GFP2, CP55,940

**Q.** Which “Emax (BRETEff), 2-AG” value (CB1R [1]) does the source give for `O=C(Nc1ccc(Cl)cc1)Nc1cccc(-c2cccc(N3CCCC3)n2)c1` [PSNCBAM-1, 1-(4-chlorophenyl)-3-(3-(6-(pyrrolidin-1-yl)pyridine-2-yl)phenyl)urea] here?
**A.** 0.64 ± 0.06

**Q.** And the “Emax (BRETEff), AEA” value (CB1R [1])?
**A.** 0.50 ± 0.04

**Q.** And the “Emax (BRETEff), CP55,940” value (CB1R [1])?
**A.** 0.81 ± 0.10

**Q.** What about the IC50 (CB1R [1]; [7]) of the same compound?
**A.** 162 nM

**Q.** And the IC50 (CB1R [1]; [8])?
**A.** 263 nM

**Q.** And the IC50 (CB1R [1]; [9])?
**A.** 209 nM

**Q.** What about the “Emax (BRETEff), 2-AG” value (CB1R [2]) of the same compound?
**A.** 0.63 ± 0.03

**Q.** What about the “Emax (BRETEff), AEA” value (CB1R [2]) of the same compound?
**A.** 0.45 ± 0.03

**Q.** And the “Emax (BRETEff), CP55,940” value (CB1R [2])?
**A.** 0.75 ± 0.08

**Q.** What about the IC50 (CB1R [2]; [7]) of the same compound?
**A.** 74.1 nM

**Q.** And the IC50 (CB1R [2]; [8])?
**A.** 355 nM

**Q.** What about the IC50 (CB1R [2]; [9]) of the same compound?
**A.** 316 nM

**Q.** What about the “Emax (BRETEff), 2-AG” value (CB1R [3]) of the same compound?
**A.** 0.68 ± 0.03

**Q.** And the “Emax (BRETEff), AEA” value (CB1R [3])?
**A.** 0.47 ± 0.02

**Q.** What about the “Emax (BRETEff), CP55,940” value (CB1R [3]) of the same compound?
**A.** 0.71 ± 0.02

**Q.** And the IC50 (CB1R [3]; [7])?
**A.** 355 nM

**Q.** What about the IC50 (CB1R [3]; [8]) of the same compound?
**A.** 510 nM

**Q.** And the IC50 (CB1R [4]; 2-AG)?
**A.** 166 nM

**Q.** And the IC50 (CB1R [4]; AEA)?
**A.** 95.5 nM

**Q.** And the “Emax, cAMP (pathway ligand bias summary)” value (CB1R [5])?
**A.** 0.42 ± 0.03 ^†

**Q.** And the “effect on cAMP levels in the absence of orthosteric agonists (inverse agonism)” value (CB1R [5])?
**A.** increased cAMP levels significantly

**Q.** And the IC50 (CB1R [5]; IC50, cAMP (pathway ligand bias summary))?
**A.** 936 nM

**Q.** What about the IC50 (CB1R [5]; IC50, cAMP, 2-AG) of the same compound?
**A.** 978 nM

**Q.** And the IC50 (CB1R [5]; IC50, cAMP, AEA)?
**A.** 870 nM

**Q.** What about the IC50 (CB1R [5]; IC50, cAMP, CP55,940) of the same compound?
**A.** 962 nM

**Q.** And the Emax (CB1R [5]; read-out: Emax (% cAMP inhibition), 2-AG)?
**A.** 40 ± 2.13%

**Q.** And the Emax (CB1R [5]; read-out: Emax (% cAMP inhibition), AEA)?
**A.** 40.7 ± 2.45%

**Q.** And the Emax (CB1R [5]; read-out: Emax (% cAMP inhibition), CP55,940)?
**A.** 45.7 ± 3.93%

**Q.** And the “Emax, β-arrestin1 (pathway ligand bias summary)” value (CB1R [6])?
**A.** 0.63 ± 0.04

**Q.** What about the IC50 (CB1R [6]) of the same compound?
**A.** 293 nM

**Q.** What about the “inverse agonism toward β-arrestin1 recruitment” value (CB1R [6]) of the same compound?
**A.** neither GAT100, Org27569, nor PSNCBAM-1 (1 nM to 10 μM) evidenced inverse agonism
